The source of these data is patent US9023789B2, “Amylin analogs and pharmaceutical compositions thereof” (Novo Nordisk A/S, priority 2012, dated 2015).

Molecules are shown by their SMILES. ≈ marks a conversion by molar mass, not a printed value. Where two headings read alike, the source gives them in different places.

Data set [1] can be described thus: ASSAY (III) ThT fibrillation assay for physical stability. The class given is physicochemical. From the text: Assay (III)—ThT Fibrillation Assays for the Assessment of Physical Stability of Protein Formulations Low physical stability of a polypeptide may lead to amyloid fibril formation, which is observed as well-ordered, thread-like macromolecular structures in the sample eventually resulting in gel formation. This has traditionally been measured by visual inspection of the sample. However, that kind of measurement is very subjective and depending on the observer. Therefore, the application of a small molecule indicator probe is much more advantageous. Thioflavin T (ThT) is such a probe and has a distinct fluorescence signature when binding to fibrils [Naiki et al. (1989) Anal. […] LeVine (1999) Methods. Enzymol. 09, 274-284]. […] Here, F is the ThT fluorescence at the time t. The constant t0 is the time needed to reach 50% of maximum fluorescence. […] Incubation and Fluorescence Measurement Incubation at given temperature, shaking and measurement of the ThT fluorescence emission were done in a Fluoroskan Ascent FL fluorescence platereader or Varioskan platereader (Thermo Labsystems). […] Fluorescence measurement was done using excitation through a 444 nm filter and measurement of emission through a 485 nm filter. […] The plate was measured every 20 minutes for a desired period of time. […] Concentrations were determined by reverse HPLC methods using a pramlintide standard as a reference. […]

A further data set addresses T1, rat calcitonin receptor (Rattus norvegicus, UniProt P32214).
T1 construct: expressed in transfected cells; host or cells: BHK tk'ts 13 (transient, FuGENE 6), membranes
T1 sequence (P32214 25-479 isoform P32214-2 limits assumed): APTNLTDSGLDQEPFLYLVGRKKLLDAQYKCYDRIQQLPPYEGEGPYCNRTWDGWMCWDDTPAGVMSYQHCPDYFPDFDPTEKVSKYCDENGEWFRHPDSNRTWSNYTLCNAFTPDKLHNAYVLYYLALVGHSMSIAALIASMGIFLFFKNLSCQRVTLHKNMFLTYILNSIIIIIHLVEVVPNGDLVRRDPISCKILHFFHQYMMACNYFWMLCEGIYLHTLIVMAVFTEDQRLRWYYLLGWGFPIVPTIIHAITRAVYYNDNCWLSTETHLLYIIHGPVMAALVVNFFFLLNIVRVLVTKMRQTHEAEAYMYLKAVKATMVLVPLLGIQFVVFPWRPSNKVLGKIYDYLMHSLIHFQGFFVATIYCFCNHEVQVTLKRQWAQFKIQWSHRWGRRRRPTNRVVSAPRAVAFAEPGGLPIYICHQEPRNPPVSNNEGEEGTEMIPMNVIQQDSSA
Kind of data set: ASSAY (VIII) binding to the rat calcitonin receptor. The conditions noted are these: Table 7, read-out: rCTR bind IC50. The procedure:
Assay (VIII)—Determination of Binding to the Rat Calcitonin Receptor
The BHK tk′ts 13 cells were transiently transfected with rat calcitonin receptor using FuGENE® 6 (Roche), according to the manufacturer's recommendations. Cells were grown in DMEM with 10% FBS and 1% Pen/Strep. Approximately 48 hours after transfection, the cells were harvested and membranes were prepared.

The nature of data set [2]: ASSAY (IV) determination of solubility. The class given is physicochemical. The protocol:
Assay (IV)—Determination of Solubility
The polypeptide was dissolved in water at −500 nmol/ml and mixed 1:1 with a series of buffers (100 mM glycylglycine pH 3.0, 100 mM glycylglycine pH 4.0, 100 mM glycylglycine pH 5.0, 100 mM bistrispropane pH 6.0, 100 mM bistrispropane pH 6.5, 100 mM bistrispropane pH 7.0, 100 mM bistrispropane pH 7.5, 100 mM bistrispropane pH 8.0). After 18 hours at room temperature the samples were centrifuged and the polypeptide concentration determined by UPLC.

Where [3] appears, read: bistrispropane buffer, pH 6.5, read-out: Solubility pH 6.5 Concentration.
The mark [4] stands for this setting: bistrispropane buffer, pH 7.5, read-out: Solubility pH 7.5 Concentration.
[5] abbreviates: bistrispropane buffer, pH 6.0, read-out: Solubility pH 6.0 Concentration.
[6] abbreviates: bistrispropane buffer, pH 7.0, read-out: Solubility pH 7.0 Concentration.
The mark [7] stands for this setting: bistrispropane buffer, pH 8.0, read-out: Solubility pH 8.0 Concentration.
Where [8] appears, read: glycylglycine buffer, pH 3.0, read-out: Solubility pH 3.0 Concentration.
[9] abbreviates: glycylglycine buffer, pH 4.0, read-out: Solubility pH 4.0 Concentration.
Setting [10] is: glycylglycine buffer, pH 5.0, read-out: Solubility pH 5.0 Concentration.

By IC50 is commonly meant the concentration that inhibits the measured activity by half. As for `CC[C@H](C)[C@H](NC(=O)[C@H](C)NC(=O)CNC(=O)[C@H](Cc1ccccc1)NC(=O)[C@H](CC(N)=O)NC(=O)[C@@H]1CCCN1C(=O)[C@H](CO)NC(=O)[C@H](CO)NC(=O)[C@H](Cc1c[nH]cn1)NC(=O)[C@H](CCCNC(=N)N)NC(=O)[C@H](CC(C)C)NC(=O)[C@H](Cc1ccccc1)NC(=O)[C@H](CC(N)=O)NC(=O)[C@H](C)NC(=O)[C@H](CC(C)C)NC(=O)[C@H](CCCNC(=N)N)NC(=O)[C@H](CCC(N)=O)NC(=O)[C@@H](NC(=O)[C@H](C)NC(=O)[C@@H]1CSSC[C@H](NC(=O)[C@@H](N)CCCCNC(=O)CCCCCCCCCCCCCCCCCCC(=O)O)C(=O)N[C@@H](CC(N)=O)C(=O)N[C@@H]([C@@H](C)O)C(=O)N[C@@H](C)C(=O)N[C@@H]([C@@H](C)O)C(=O)N1)[C@@H](C)O)C(=O)N1CCC[C@H]1C(=O)N[C@@H](CO)C(=O)N[C@@H](CO)C(=O)N[C@H](C(=O)N[C@@H](CC(N)=O)C(=O)N[C@H](C(=O)NCC(=O)N[C@@H](CO)C(=O)N[C@@H](CC(N)=O)C(=O)N[C@H](C(=O)N[C@@H](Cc1ccc(O)cc1)C(N)=O)[C@@H](C)O)C(C)C)[C@@H](C)O` [Example 42], in data set [1], the “ThT pH 4.0 lag time (h)” value is reported as 2 h. In addition, at rat calcitonin receptor, the IC50 amounted to 15.3 nM. Moreover, the solubility at 18 h in data set [2] (setting [3]) was ≥ 200 µM; in data set [2] (setting [4]), 84 µM (≈ 357 µg/mL); in data set [2] (setting [5]), ≥ 200 µM; in data set [2] (setting [6]), 163 µM (≈ 693 µg/mL); in data set [2] (setting [7]), 65 µM (≈ 276 µg/mL); in data set [2] (setting [8]), ≥ 200 µM. Besides, the solubility at 18 h in data set [2] (setting [9]) and in data set [2] (setting [10]) was ≥ 200 µM in each case.

Consider `CC[C@H](C)[C@H](NC(=O)[C@H](C)NC(=O)CNC(=O)[C@H](Cc1ccccc1)NC(=O)[C@H](CC(N)=O)NC(=O)[C@@H]1CCCN1C(=O)[C@H](CO)NC(=O)[C@H](CO)NC(=O)[C@H](Cc1c[nH]cn1)NC(=O)[C@H](CCCNC(=N)N)NC(=O)[C@H](CC(C)C)NC(=O)[C@H](Cc1ccccc1)NC(=O)[C@H](CC(N)=O)NC(=O)[C@H](C)NC(=O)[C@H](CC(C)C)NC(=O)[C@H](CCCNC(=N)N)NC(=O)[C@H](CCC(N)=O)NC(=O)[C@@H](NC(=O)[C@H](C)NC(=O)[C@@H]1CSSC[C@H](NC(=O)[C@H](CCCCN)NC(=O)CC[C@H](NC(=O)CCCCCCCCCCCCCCCCCCC(=O)O)C(=O)O)C(=O)N[C@@H](CC(N)=O)C(=O)N[C@@H]([C@@H](C)O)C(=O)N[C@@H](C)C(=O)N[C@@H]([C@@H](C)O)C(=O)N1)[C@@H](C)O)C(=O)N1CCC[C@H]1C(=O)N[C@@H](CO)C(=O)N[C@@H](CO)C(=O)N[C@H](C(=O)N[C@@H](CC(N)=O)C(=O)N[C@H](C(=O)NCC(=O)N[C@@H](CO)C(=O)N[C@@H](CC(N)=O)C(=O)N[C@H](C(=O)N[C@@H](Cc1ccc(O)cc1)C(N)=O)[C@@H](C)O)C(C)C)[C@@H](C)O` [Example 21], for which the “ThT pH 4.0 lag time (h)” value in data set [1] came out at 24 h. Further, the IC50 at rat calcitonin receptor worked out at 27.9 nM. The solubility at 18 h in data set [2] (setting [3]) was ≥ 200 µM; in data set [2] (setting [4]), ≥ 200 µM; in data set [2] (setting [5]) it was ≥ 200 µM; in data set [2] (setting [6]), ≥ 200 µM; in data set [2] (setting [7]) it was 195 µM (≈ 854 µg/mL); in data set [2] (setting [8]), ≥ 200 µM. Besides, the solubility at 18 h in data set [2] (setting [9]) and in data set [2] (setting [10]) was ≥ 200 µM in each case.
